Test results from PubChem BioAssay AID588674 (Broad Institute, 2011).
This is a selection; strong and weak results do not stand in their true shares. Some of these compounds have results that are not shown, active ones among them. Active and inactive are the calls of the source.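 Rule for the calls: active = mean inhibition of at least 75% with every replicate also reaching 75%; inconclusive = mean inhibition at least 75% but some replicate below; inactive = mean inhibition below 75%.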

Test: reduction of Shn3 3'UTR firefly luciferase signal, primary screen, Schnurri-3 inhibitor project, cell-based, Clone20 osteoblasts, set 2 (AID 588674);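 note: 0% = median of neutral control wells and 100% = pilot-screen positive control compound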
Details: Clone20 osteoblast Shn3 3'UTR firefly luciferase, 24 h; at 12.5 µM; stronger effect = higher value

| SMILES | inhibition |
| --- | --- |
| Cc1ccccc1C(=O)NCC1(N2CCCCC2)CCCCC1 | inactive: 9.44% |
| CN(C)C1CCCC1OC(=O)C(O)(c1ccccc1)c1ccccc1 (stereo unspecified) | inactive: 17.9% |
| CN(C)c1ccc(C(=O)NCC2(N(C)C)CCCCC2)cc1 | inactive: -15.5% |
| Cc1cc(C(=O)NCC2(N3CCCCC3)CCCCC2)ccc1[N+](=O)[O-] | inactive: -9.22% |
| CCN1CCCC(OC(=O)C2(O)c3ccccc3C=Cc3ccccc32)C1 (stereo unspecified) | inactive: -8.22% |
| O=C(NCC1(N2CCCCC2)CCCCC1)c1cccc(Br)c1 | inactive: -2.62% |
| COc1ccc(C(=O)NCC2(N(C)C)CCCCC2)cc1 | inactive: -4.94% |
| C=CCN1CCN(CCOC(=O)C(O)(c2ccccc2)c2ccccc2)CC1 | inactive: -1.64% |
| O=C(NCC1(N2CCCCC2)CCCCC1)c1cc(F)c(F)cc1Cl | inactive: 3.28% |
| CN1[C@@H]2CC[C@H]1CC(OC(=O)C(O)(c1ccccc1)c1ccccc1)C2 (stereo partly specified) | inactive: -5.45% |
| O=C(NCC1(N2CCCCC2)CCCCC1)c1cc([N+](=O)[O-])ccc1Cl | inactive: -3.74% |
| Cc1ccc(C(=O)NCC2(N3CCCCC3)CCCCC2)cc1 | inactive: -8.77% |
| CC(C)N1C(=O)CC2(CCN(CCOC(=O)C(O)(c3ccccc3)c3ccccc3)CC2)C1=O | inactive: 1.35% |
| CCN(CC)CC(C)C(C)OC(=O)C(O)(c1ccccc1)c1ccccc1 (stereo unspecified) | inactive: 3.22% |
| COc1cc(SC)ccc1C(=O)NCC1(N(C)C)CCCCC1 | inactive: 7.16% |
| O=C(OC1CN2CCC1CC2)C(CO)(c1ccccc1)c1ccccc1 (stereo unspecified) | inactive: 16.9% |
| CN(C)c1cccc(C(=O)NCC2(N(C)C)CCCCC2)c1 | inactive: -15.1% |
| CC(C)Oc1ccc(C(=O)NCC2(N(C)C)CCCCC2)cc1 | inactive: -15.3% |
| O=C(OCCN1CCCC1)C(O)(c1ccccc1)c1ccccc1 | inactive: 9.75% |
| COc1ccc(Br)c(C(=O)NCC2(N3CCCCC3)CCCCC2)c1 | inactive: 4.45% |
| C=C(C)C#CC(O)(C(=O)OC1CCN(C)CC1)c1ccccc1 (stereo unspecified) | inactive: -7.83% |
| COc1cc(C(=O)NCC2(N(C)C)CCCCC2)c([N+](=O)[O-])cc1OC | inactive: -9.36% |
| CN(C)C1(CNC(=O)c2ccc(Br)cc2)CCCCC1 | inactive: 7.79% |
| O=C(NCC1(N2CCCCC2)CCCCC1)c1cccc(Cl)c1 | inactive: -1.36% |
| COc1cccc(C(=O)NCC2(N3CCCCC3)CCCCC2)c1 | inactive: 9.57% |
| COc1ccc(Cl)cc1C(=O)NCC1(N(C)C)CCCCC1 | inactive: -0.887% |
